# Source: PubChem BioAssay AID504444 (National Center for Advancing Translational Sciences (NCATS), 2011)
# The entries are a selection whose mix differs from that of the whole data set. Results filed as inconclusive are left out. Entries that show only a call come without a potency. Calls of active or inactive are those of the source. Calls follow the shape of the dose curve; as a rule, active = well fitted inhibition curve with a large enough effect; inconclusive = small, poorly fitted or top-dose-only effect, or effect the other way; inactive = flat fitted curve, though single readings scatter.
# Assay: Nrf2 qHTS screen for inhibitors; also: nearly all actives have a fitted effect of over 60% in size
# Conditions: A549 ARE-Fluc reporter, luciferase luminescence, 18-24 h; series mostly up to 46 µM
row,Compound,Potency
1,COc1ccc(C2=NCC(CBr)S2)cc1 (stereo not drawn),inactive
2,Cc1ccc(NP(=O)(Oc2ccccc2)Oc2ccccc2)nc1,inactive
3,O=[N+]([O-])c1cc([N+](=O)[O-])c(CCNc2ccccc2)c([N+](=O)[O-])c1,inactive
4,CCc1nc2c(n1)c1c(non1O)c1c2no[n+]1[O-],inactive
5,CC(=O)N1C2C3N(C(C)=O)C1C1N(C(C)=O)C(C(N1C(C)=O)N3C(C)=O)N2C(C)=O,inactive
6,O=[N+]([O-])c1cccc2n[nH]nc12,inactive
7,CCN(/C(=N/P(=O)(N1CCOCC1)N1CCOCC1)N1CCOCC1)c1ccc(OC)cc1,inactive
8,Nc1ccc([As](=O)(O)c2ccc(N)cc2)cc1,inactive
9,C[N+]1=C2C=CC=CC=C2SC12C([N+](=O)[O-])=CC([N+](=O)[O-])=C[C-]2[N+](=O)[O-] (stereo not drawn),inactive
10,CC1CCN(C(=O)Oc2c(Cl)cc(Cl)c3cccnc23)CC1,inactive
11,CC(C)=N/N=C(\N)N[N+](=O)[O-],inactive
12,CN(C)C(=O)OCCc1n(C)cc[n+]1C,inactive
13,O=P1(N(CCCl)CCCl)OCCCS1 (stereo not drawn),inactive
14,O=P(/N=c1/nc(-c2ccccc2)n(-c2ccccc2)s1)(Nc1ccccc1)Nc1ccccc1,inactive
15,O=C(Nc1cc([As](=O)(O)O)ccc1O)c1ccccc1,inactive
16,O=[N+]([O-])c1ncn(CCn2ncnc2[N+](=O)[O-])n1,inactive
17,CC(C)(C)C(=O)NC(Sc1ccncn1)C(Cl)(Cl)Cl (stereo not drawn),inactive

row,Compound,Potency
1,O=C(O)CNc1ccc([As](=O)(O)O)cc1,inactive
2,COC(=O)C1(C)COP(=O)(Nc2ccccc2)OC1 (stereo not drawn),inactive
3,O=[N+]([O-])c1cccc(NC2=NCC(CBr)S2)c1 (stereo not drawn),inactive
4,CC(=O)Nc1ccc([As](=O)(O)O)cc1,inactive
5,O=C(O)c1ccccc1[As](=O)(O)O,inactive
6,CCCC1OP(N)(=O)OCC1CC (stereo not drawn),inactive
7,Cc1cc(SC(NC(=O)c2ccc(F)cc2)C(Cl)(Cl)Cl)ncn1 (stereo not drawn),inactive
8,CCOP(=O)(Nc1ccccc1)OCC,inactive
9,Cc1ccc(NP(=O)(Oc2ccccc2F)Oc2ccccc2F)nc1,inactive
10,Nc1cccc2ccc([As](=O)(O)O)cc12,inactive
11,Cc1ccc(N/C(=N/P(=O)(N2CCOCC2)N2CCOCC2)N2CCOCC2)cc1,inactive
12,NC(=O)c1cc([N+](=O)[O-])cc([N+](=O)[O-])c1N,inactive
13,CN1CCCC(OC(=O)C(c2ccccc2)c2ccccc2)C1 (stereo not drawn),inactive
14,Clc1ccc(Cl)c(NC2=NCC(CBr)S2)c1 (stereo not drawn),inactive
15,COc1ccccc1OP(=O)(Nc1ccc(C)cn1)Oc1ccccc1OC,inactive
16,Cc1ccc(OP(=O)(Nc2nccs2)Oc2ccc(C)cc2)cc1,inactive
